Assay results reported in patent US5180742A, “Quinone derivatives, their production and use” (Takeda Chemical Industries, Ltd., priority 1984, dated 1993).

Tested on: mice of ICR breed
Type: in vivo
Details: 1000 mg/kg oral, male ICR mice, 7 days
Source text: Acute Toxicity Test in Mice (Acute Toxicity)
1000 Milligrams per kilogram of each set specimen was applied orally to groups of 5 five-weeks old male mice of ICR breed, and a number of dead animals observed for the 7-days period was counted.

SMILES: CC1=C(C)C(=O)C(C(CCCCCC(=O)O)c2ccccc2)=C(C)C1=O (stereo not shown) [Compound No. 50, 7-(3,5,6-trimethyl-1,4-benzoquinon-2-yl)-7-phenylheptanoic acid]
- Acute toxicity (number of dead animals/number of animals used): 0/5
